Membrane permeability of cyclic peptides

Data: CycPeptMPDB; original report Price et al. 2017, doi:10.1039/c7ob00096k.

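Lipid, pH, incubation time, direction and concentration are not recorded in the data file. The list need not hold all peptides of the study. Entries at the database's floor value (log10 P of -10) are not listed.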

RRCK values come from monolayers of low-efflux MDCK cells.
EPSA is the experimental polar surface area, a chromatographic measure of exposed polarity.
Permeability is given as log10 of P in cm/s; higher (less negative) is more permeable.

{"smiles": "CC[C@@H]1NC(=O)[C@H](C(C)C)N(C)C(=O)[C@H](CC(C)C)N(C)C(=O)[C@H](CC(C)C)N(C)C(=O)[C@@H](C)NC(=O)[C@H](C)NC(=O)[C@H](CC(C)C)N(C)C(=O)[C@H](C(C)C)NC(=O)[C@H](CC(C)C)N(C)C(=O)CN(C)C1=O", "RRCK (log10 cm/s)": "-5.27", "EPSA (Å2)": "61"}